Laboratory results taken from ChEMBL document CHEMBL4152267, “Structure-based design of novel quinoxaline-2-carboxylic acids and analogues as Pim-1 inhibitors” (Eur J Med Chem, 2018).

Assays:
Homo sapiens [1] = organism: Homo sapiens; assay: Selectivity ratio of IC50 for human CDK2/CyclinA to IC50 for recombinant human Pim1 expressed in bacterial expression system
Homo sapiens [2] = organism: Homo sapiens; assay: Selectivity ratio of IC50 for recombinant human CDK9/CyclinT expressed in baculovirus infected Sf9 insect cells to IC50 for recombinant human Pim1 expressed in bacterial expression system
[3] = Selectivity ratio of IC50 for recombinant rat DYRK1A kinase domain (1 to 499 residues) expressed in bacterial expression system to IC50 for recombinant human Pim1 expressed in bacterial expression system
[4] = Selectivity ratio of IC50 for porcine brain GSK-3alpha/beta to IC50 for recombinant human Pim1 expressed in bacterial expression system
Homo sapiens [5] = organism: Homo sapiens; assay: Selectivity ratio of IC50 for recombinant human haspin kinase domain (470 to 798 residues) expressed in bacterial expression system to IC50 for recombinant human Pim1 expressed in bacterial expression system
[6] = Selectivity ratio of IC50 for recombinant mouse CLK1 expressed in bacterial expression system to IC50 for recombinant human Pim1 expressed in bacterial expression system
[7] = Selectivity ratio of IC50 for porcine brain CK1delta/epsilon to IC50 for recombinant human Pim1 expressed in bacterial expression system

SMILES	Ratio IC50 (Homo sapiens [1])	Ratio IC50 (Homo sapiens [2])	Ratio IC50 [3]	Ratio IC50 [4]	Ratio IC50 (Homo sapiens [5])	Ratio IC50 [6]	Ratio IC50 [7]
O=C(O)c1nc2ccccc2nc1Nc1cccc(O)c1	> 130	> 130	3.5	> 130	> 130	> 130	> 130
O=C(O)c1nc2ccccc2nc1Nc1cccc(N2CCOCC2)c1	> 10	> 10	> 10	> 10	> 10	> 10	> 10
